This is an account of results in publication PMC6927764.

The test deals with Trastuzumab IgG (high-affinity anti-HER2 antibody, bivalent) (human (bound by anti-human Fc sensors)). Put plainly: BLI. Background: Biolayer interferometry detects binding as a change in optical thickness at a sensor tip.

For orientation: koff means a measure of how fast the partners let go of each other. The kon is a measure of how fast the partners come together. High values mean faster complex formation, low ones slower complex formation. Turning to “C1q, the first subcomponent of the C1 complement complex (from UniProt P02745;P02746;P02747)”, the Kd is 9.4 µM, the koff amounted to 0.19 s⁻¹ and the kon came out at 21000 M⁻¹ s⁻¹.
